According to US6156769A (priority 2000, dated 2000):

Tested on: scratching induced by Compound 48/80 in mice
Assay: mouse scratch model (antagonism of scratching induced by Compound 48/80)
Assay type: in vivo, male Swiss albino mice
Details: Compound 48/80 challenge, 30 min observation

**Q.** What does the source list for CN(C(=O)Cc1cccc2occc12)[C@H]1CC[C@@]2(CCCO2)C[C@@H]1N1CCCC1?
**A.** % Inhibition (of scratching) (2.5 mg/kg s.c.): 30%; % Inhibition (of scratching) (5.0 mg/kg s.c.): 57%; % Inhibition (of scratching) (10.0 mg/kg s.c.): 75%; % Inhibition (of scratching) (30.0 mg/kg s.c.): 92%
